Results on one substance are retold here after patent publication US11938164B2, “Exosome-based cancer assays” (TRUSTEES OF BOSTON UNIVERSITY, priority 2021, dated 2024).

This assay deals with primary adipocytes. In words: Glucose uptake assay of primary adipocytes (induction of insulin resistance). To be noted: TNFα 250 pM, 24 h, 10 nM insulin. It counts as cell-based, human. As for the experimental part:
Treatment of mature, fully differentiated, primary adipocytes ex vivo with low concentrations (250 pM) of the pro-inflammatory cytokine tumor necrosis factor alpha (TNFa) is well established to ablate insulin-sensitive glucose transport and induce phosphorylation of Akt and other molecular changes. Human primary adipocytes were treated with 250 pM recombinant human TNFa (Abcam, ab9642), and 3T3-L1 adipocytes were treated with 1 nM recombinant ouse TNFa (Abcam, ab9740), overnight to induce insulin resistance.
To measure glucose uptake in cells, the Glucose Uptake-Glo™ Assay (J1341, Promega) was used as outlined in the manufacturer's protocol. This is a plate-based, bioluminescent method for measuring glucose uptake by living cells, based on the detection of 2-deoxyglucose-6-phosphate (2DG6P).

Consider “TNFα: recombinant human tumor necrosis factor alpha (Abcam, ab9642)”, for which the “insulin-responsive glucose transport (fluorimetric glucose uptake assay)” value is recorded as “converted IS to IR adipocytes, unable to transport glucose in response to 10 nM insulin”.
